## OPERA 2.9 data: melting point values

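The OPERA project collected these measurements from public sources as training and test data for property models. The files give a single number for a compound and property, which may rest on several reports. Conditions of the individual experiments are not part of the data. Where a salt, mixture or single isomer is drawn, the source does not say that exactly this form was tested. Unmarked limits or estimates from the upstream databases cannot be ruled out.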

Melting points are in °C.

- COc1ccc(CCl)cc1Br [2-bromo-4-(chloromethyl)-1-methoxybenzene]: melting point 48 °C
- CCOP(=O)(OCC)OP(=O)(OCC)OCC [Tetraethyl pyrophosphate]: melting point 0 °C
- OC(c1ccccc1)(c1ccccc1)C1CCCCN1 (stereo unspecified) [Pipradrol]: melting point 97.5 °C
- C=CCNC(=O)NC(=O)CCl [2-Chloro-N-[(prop-2-en-1-yl)carbamoyl]acetamide]: melting point 114 °C
- C[N@@](CCCCCC(O)=O)S(=O)(=O)C1C=CC=CC=1: melting point 56 °C
- CN(/N=C/c1ccc(Br)cc1)P(=O)(N1CC1)N1CC1 [TEPA,N-p-Br-benzylidene-N-Me-hydrazin1yl]: melting point 118 °C
- O=C(O)c1cn(Cc2ccccc2)c2ccccc12 [Indole-3-carboxylic acid, 1-benzyl-]: melting point 193 °C
- O=C(CCl)c1ccc(Cl)cc1Cl [2,2',4'-Trichloroacetophenone]: melting point 53.81 °C
- Cc1ccc2c(c1)Sc1ccc(C)cc1S2 [Mesulfen]: melting point 123 °C
- O=C1NC(=O)C(c2ccccc2)(c2ccccc2)C(=O)N1 [5,5-Diphenylbarbituric acid]: melting point 288 °C
- C/C=C1/C[C@@H](C)[C@@](C)(O)C(=O)OCC2=CCN(C)CC[C@@H](OC1=O)C2=O [Senkirkine]: melting point 198 °C
- CNC(=O)Oc1cccc2sccc12 [Mobam]: melting point 128 °C
- Clc1ccc(-c2ccc(Cl)cc2Cl)cc1 [2,4,4'-Trichlorobiphenyl]: melting point 57 °C
- CC(C)(N)Cc1ccc(Cl)cc1.Cl [Chlorphentermine hydrochloride]: melting point 52.5 °C
- CC(C)NC(=O)C(C)Cl (stereo unspecified) [2-chloro-N-isopropylpropanamide]: melting point 90 °C
- C[C@H](Cl)C(=O)c1ccc(Br)cc1 [1-(4-Bromophenyl)-2-chloropropan-1-one]: melting point 55 °C
- CCCCCCCCCCCCCCCCOC(=O)Cl [Carbonochloridic acid, hexadecyl ester]: melting point 14 °C
- C[N+](C)(C)C.[OH-] [Tetramethylammonium hydroxide]: melting point 63 °C
- Fc1ccc(CBr)c(Br)c1 [2-Bromo-4-fluorobenzyl bromide]: melting point 52 °C
- CC(=O)Nc1ccc(-c2ccccc2)cc1 [4-Acetylaminobiphenyl]: melting point 172 °C
- CCOC(=O)C1(c2ccccc2)CCN(CCOCC2CCCO2)CC1 (stereo unspecified): melting point 28 °C
- O=C(CCl)NCc1ccco1 [2-chloro-N-(2-furylmethyl)acetamide]: melting point 82 °C
- N#Cc1cn([C@@H]2O[C@H](CO)[C@@H](O)[C@H]2O)c2ncnc(N)c12 [Toyocamycin]: melting point 243 °C
- CC(=O)C=Cc1ccc2c(c1)OCO2 [Piperonal acetone]: melting point 111 °C
- CN(C)C(=S)[S-].CN(C)C(=S)[S-].[Pb+2] [Lead dimethyldithiocarbamate]: melting point 310 °C
- Clc1cc(-c2cc(Cl)c(Cl)c(Cl)c2Cl)c(Cl)c(Cl)c1Cl [2,2',3,3',4,4',5,5'-Octachlorobiphenyl]: melting point 156 °C
- CNC(=S)[S-].[Na+] [Metam-sodium]: melting point 88.5 °C
- CCCCCCCCCCCCCC(=O)O[C@@H]1[C@@H](C)[C@@]2(O)[C@@H](C=C(CO)C[C@]3(O)C(=O)C(C)=C[C@@H]23)[C@@H]2C(C)(C)[C@]12OC(C)=O [12-O-Tetradecanoylphorbol-13-acetate]: melting point 72.22 °C
- Cc1coc2c1CCC(C)C2 (stereo unspecified) [Menthofuran]: melting point 86 °C
- CCN1CCN(Cc2ccc(N)cc2)CC1 [4-[(4-Ethylpiperazin-1-yl)methyl]aniline]: melting point 73 °C
- COc1ccc(OC)c(C(O)C(C)N)c1.Cl (stereo unspecified) [Methoxamine hydrochloride]: melting point 214 °C
- O=C(CCl)Nc1nncs1 [2-Chloro-N-(1,3,4-thiadiazol-2-yl)acetamide]: melting point 234 °C
- CC(=O)Nc1nc(CCl)cs1 [2-Acetamido-4-chloromethylthiazole]: melting point 160 °C
- CC(C)OC(=O)Oc1ccccc1C(=O)OOC(=O)c1ccccc1: melting point 69 °C
- O=C(O)c1cnn(Cc2ccccc2)c1 [1-Benzyl-1H-pyrazole-4-carboxylic acid]: melting point 150 °C
- CCCCCCCC/C=C\CCCCCCCC(=O)N(C)CC(=O)[O-].CCCCCCCC/C=C\CCCCCCCC(=O)N(C)CC(=O)[O-].[Ca+2]: melting point 66.5 °C
- Clc1ccc(-c2c(Cl)cc(Cl)c(Cl)c2Cl)c(Cl)c1Cl [2,2',3,3',4,4',6-Heptachlorobiphenyl]: melting point 122 °C
- CC(C)(C)c1cc(-c2cc(C(C)(C)C)cc(C(C)(C)C)c2Op2oc3ccccc3c3ccccc3o2)c(Op2oc3ccccc3c3ccccc3o2)c(C(C)(C)C)c1: melting point 233 °C
- NC(N)=[Se] [Selenourea]: melting point 200 °C
- Clc1ccc(-c2ccc(Cl)c(Cl)c2)cc1Cl: melting point 180 °C
- CC(C)CNC(=O)C(C)Cl (stereo unspecified) [2-Chloro-N-(2-methylpropyl)propanamide]: melting point 38 °C
- Clc1ccc(Cl)c(-c2c(Cl)ccc(Cl)c2Cl)c1Cl [2,2',3,3',6,6'-Hexachlorobiphenyl]: melting point 114 °C
- c1ccc2[nH]c(C3CCCNC3)nc2c1 (stereo unspecified) [2-(Piperidin-3-yl)-1H-benzimidazole]: melting point 190 °C
- N#Cc1ccc(F)c(CBr)c1 [3-(Bromomethyl)-4-fluorobenzonitrile]: melting point 45 °C
- NN=C(N)N.O=P(O)(O)O [Carbazamidine phosphate]: melting point 125.8 °C
- CC(CC(=O)OOC(=O)CC(C)CC(C)(C)C)CC(C)(C)C (stereo unspecified) [Peroxide, bis(3,5,5-trimethyl-1-oxohexyl)]: melting point -75.4 °C
- Cc1nnc(CCl)o1 [2-(chloromethyl)-5-methyl-1,3,4-oxadiazole]: melting point 36 °C

The last 6 entries again:

{"smiles": "Clc1ccc(Cl)c(-c2c(Cl)ccc(Cl)c2Cl)c1Cl", "name": "2,2',3,3',6,6'-Hexachlorobiphenyl", "melting point (°C)": "114"}
{"smiles": "c1ccc2[nH]c(C3CCCNC3)nc2c1", "stereo": "stereo unspecified", "name": "2-(Piperidin-3-yl)-1H-benzimidazole", "melting point (°C)": "190"}
{"smiles": "N#Cc1ccc(F)c(CBr)c1", "name": "3-(Bromomethyl)-4-fluorobenzonitrile", "melting point (°C)": "45"}
{"smiles": "NN=C(N)N.O=P(O)(O)O", "name": "Carbazamidine phosphate", "melting point (°C)": "125.8"}
{"smiles": "CC(CC(=O)OOC(=O)CC(C)CC(C)(C)C)CC(C)(C)C", "stereo": "stereo unspecified", "name": "Peroxide, bis(3,5,5-trimethyl-1-oxohexyl)", "melting point (°C)": "-75.4"}
{"smiles": "Cc1nnc(CCl)o1", "name": "2-(chloromethyl)-5-methyl-1,3,4-oxadiazole", "melting point (°C)": "36"}

Data: OPERA 2.9 data sets, kmansouri/OPERA on GitHub.